# Test results published in article PMC2110886 (PLoS ONE, 2007).
# Assay: Steady-state plasma pharmacokinetics, open-label randomized three-way crossover study, drugs alone or in combination
# Conditions: Amantadine + Oseltamivir/Oseltamivir alone
compound,measurement,setting,value
"CCC(CC)O[C@@H]1C=C(C(=O)O)C[C@H](N)[C@H]1NC(C)=O [Oseltamivir carboxylate, oseltamivir carboxylate]","AUCtau (AUC0-12), ratio of geometric means",oseltamivir carboxylate in plasma,0.98
same,"AUCtau (AUC0-12), ratio of geometric means","oseltamivir carboxylate in plasma, listed as oseltamivir carboxylate","0.98 (0.95, 1.02)"
"CCOC(=O)C1=C[C@@H](OC(CC)CC)[C@H](NC(C)=O)[C@@H](N)C1 [Oseltamivir, oseltamivir, reference compound]","AUCtau (AUC0-12), ratio of geometric means",oseltamivir in plasma,0.92
same,"AUCtau (AUC0-12), ratio of geometric means","oseltamivir in plasma, listed as oseltamivir","0.92 (0.86, 0.99)"
